PubChem BioAssay (NCI)
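Tested at 5 concentrations; 48 h exposure; 96-well plates; endpoints linearly interpolated, else capped at highest concentration. At the GI50, growth is halved. TGI is the concentration that stops growth completely.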

Tests used:
Assay in all cases: DTP human tumour cell line panel, 48 h
EKVX NSCLC = tested on: EKVX NSCLC
HL-60(TB) leukemia = tested on: HL-60(TB) leukemia
K-562 leukemia = tested on: K-562 leukemia
SF-539 CNS = tested on: SF-539 CNS
SW-620 colon = tested on: SW-620 colon
MDA-MB-435 = tested on: MDA-MB-435
NCI-H522 lung = tested on: NCI-H522 lung
COLO 205 colon = tested on: COLO 205 colon
OVCAR-5 ovarian = tested on: OVCAR-5 ovarian
NCI/ADR-RES ovarian = tested on: NCI/ADR-RES ovarian
KM12 colon = tested on: KM12 colon
MOLT-4 leukemia = tested on: MOLT-4 leukemia
SK-MEL-2 melanoma = tested on: SK-MEL-2 melanoma
MDA-MB-231 breast = tested on: MDA-MB-231 breast
A549 NSCLC = tested on: A549 NSCLC
HT29 colon = tested on: HT29 colon
IGROV1 ovarian = tested on: IGROV1 ovarian
HCC-2998 colon = tested on: HCC-2998 colon
SNB-19 CNS = tested on: SNB-19 CNS
T-47D breast = tested on: T-47D breast
SF-268 CNS = tested on: SF-268 CNS
HCT-15 colon = tested on: HCT-15 colon
PC-3 prostate = tested on: PC-3 prostate
UACC-257 melanoma = tested on: UACC-257 melanoma
M14 melanoma = tested on: M14 melanoma
TK-10 renal = tested on: TK-10 renal
A498 renal = tested on: A498 renal
SK-MEL-5 melanoma = tested on: SK-MEL-5 melanoma
MDA-N = tested on: MDA-N
CAKI-1 renal = tested on: CAKI-1 renal
RPMI-8226 leukemia = tested on: RPMI-8226 leukemia
OVCAR-8 ovarian = tested on: OVCAR-8 ovarian
DU-145 prostate = tested on: DU-145 prostate
NCI-H226 lung = tested on: NCI-H226 lung
MCF7 breast = tested on: MCF7 breast
HOP-62 NSCLC = tested on: HOP-62 NSCLC
SR leukemia = tested on: SR leukemia
HCT-116 colon = tested on: HCT-116 colon
U251 CNS = tested on: U251 CNS
UACC-62 melanoma = tested on: UACC-62 melanoma
HOP-92 NSCLC = tested on: HOP-92 NSCLC
NCI-H23 lung = tested on: NCI-H23 lung
BT-549 breast = tested on: BT-549 breast
NCI-H322M lung = tested on: NCI-H322M lung
UO-31 renal = tested on: UO-31 renal
OVCAR-4 ovarian = tested on: OVCAR-4 ovarian
SNB-75 CNS = tested on: SNB-75 CNS
SK-MEL-28 melanoma = tested on: SK-MEL-28 melanoma
ACHN renal = tested on: ACHN renal
CCRF-CEM leukemia = tested on: CCRF-CEM leukemia
SN12C renal = tested on: SN12C renal
LOX IMVI melanoma = tested on: LOX IMVI melanoma
RXF 393 renal = tested on: RXF 393 renal
MALME-3M melanoma = tested on: MALME-3M melanoma
786-0 renal = tested on: 786-0 renal
SF-295 CNS = tested on: SF-295 CNS
NCI-H460 lung = tested on: NCI-H460 lung
HS 578T breast = tested on: HS 578T breast
OVCAR-3 ovarian = tested on: OVCAR-3 ovarian

Structure (SMILES): O=[N+]([O-])c1cc([N+](=O)[O-])c(O)c([N+](=O)[O-])c1.O[C@@H]1CCN2CCC[C@H]12
- GI50 (EKVX NSCLC): > 100 µM
- TGI (EKVX NSCLC): > 100 µM
- GI50 (HL-60(TB) leukemia): > 100 µM
- TGI (HL-60(TB) leukemia): > 100 µM
- GI50 (K-562 leukemia): > 100 µM
- TGI (K-562 leukemia): > 100 µM
- GI50 (SF-539 CNS): > 100 µM
- TGI (SF-539 CNS): > 100 µM
- GI50 (SW-620 colon): > 100 µM
- TGI (SW-620 colon): > 100 µM
- GI50 (MDA-MB-435): 49.9 µM
- TGI (MDA-MB-435): > 100 µM
- GI50 (NCI-H522 lung): 51.5 µM
- TGI (NCI-H522 lung): > 100 µM
- GI50 (COLO 205 colon): > 100 µM
- TGI (COLO 205 colon): > 100 µM
- GI50 (OVCAR-5 ovarian): > 100 µM
- TGI (OVCAR-5 ovarian): > 100 µM
- GI50 (NCI/ADR-RES ovarian): > 100 µM
- TGI (NCI/ADR-RES ovarian): > 100 µM
- GI50 (KM12 colon): > 100 µM
- TGI (KM12 colon): > 100 µM
- GI50 (MOLT-4 leukemia): > 100 µM
- TGI (MOLT-4 leukemia): > 100 µM
- GI50 (SK-MEL-2 melanoma): > 100 µM
- TGI (SK-MEL-2 melanoma): > 100 µM
- GI50 (MDA-MB-231 breast): > 100 µM
- TGI (MDA-MB-231 breast): > 100 µM
- GI50 (A549 NSCLC): > 100 µM
- TGI (A549 NSCLC): > 100 µM
- GI50 (HT29 colon): > 100 µM
- TGI (HT29 colon): > 100 µM
- GI50 (IGROV1 ovarian): > 100 µM
- TGI (IGROV1 ovarian): > 100 µM
- GI50 (HCC-2998 colon): > 100 µM
- TGI (HCC-2998 colon): > 100 µM
- GI50 (SNB-19 CNS): > 100 µM
- TGI (SNB-19 CNS): > 100 µM
- GI50 (T-47D breast): > 100 µM
- TGI (T-47D breast): > 100 µM
- GI50 (SF-268 CNS): > 100 µM
- TGI (SF-268 CNS): > 100 µM
- GI50 (HCT-15 colon): > 100 µM
- TGI (HCT-15 colon): > 100 µM
- GI50 (PC-3 prostate): > 100 µM
- TGI (PC-3 prostate): > 100 µM
- GI50 (UACC-257 melanoma): > 100 µM
- TGI (UACC-257 melanoma): > 100 µM
- GI50 (M14 melanoma): > 100 µM
- TGI (M14 melanoma): > 100 µM
- GI50 (TK-10 renal): > 100 µM
- TGI (TK-10 renal): > 100 µM
- GI50 (A498 renal): > 100 µM
- TGI (A498 renal): > 100 µM
- GI50 (SK-MEL-5 melanoma): > 100 µM
- TGI (SK-MEL-5 melanoma): > 100 µM
- GI50 (MDA-N): 98.5 µM
- TGI (MDA-N): > 100 µM
- GI50 (CAKI-1 renal): > 100 µM
- TGI (CAKI-1 renal): > 100 µM
- GI50 (RPMI-8226 leukemia): > 100 µM
- TGI (RPMI-8226 leukemia): > 100 µM
- GI50 (OVCAR-8 ovarian): > 100 µM
- TGI (OVCAR-8 ovarian): > 100 µM
- GI50 (DU-145 prostate): > 100 µM
- TGI (DU-145 prostate): > 100 µM
- GI50 (NCI-H226 lung): > 100 µM
- TGI (NCI-H226 lung): > 100 µM
- GI50 (MCF7 breast): > 100 µM
- TGI (MCF7 breast): > 100 µM
- GI50 (HOP-62 NSCLC): > 100 µM
- TGI (HOP-62 NSCLC): > 100 µM
- GI50 (SR leukemia): > 100 µM
- TGI (SR leukemia): > 100 µM
- GI50 (HCT-116 colon): > 100 µM
- TGI (HCT-116 colon): > 100 µM
- GI50 (U251 CNS): > 100 µM
- TGI (U251 CNS): > 100 µM
- GI50 (UACC-62 melanoma): > 100 µM
- TGI (UACC-62 melanoma): > 100 µM
- GI50 (HOP-92 NSCLC): > 100 µM
- TGI (HOP-92 NSCLC): > 100 µM
- GI50 (NCI-H23 lung): > 100 µM
- TGI (NCI-H23 lung): > 100 µM
- GI50 (BT-549 breast): > 100 µM
- TGI (BT-549 breast): > 100 µM
- GI50 (NCI-H322M lung): > 100 µM
- TGI (NCI-H322M lung): > 100 µM
- GI50 (UO-31 renal): 59 µM
- TGI (UO-31 renal): > 100 µM
- GI50 (OVCAR-4 ovarian): > 100 µM
- TGI (OVCAR-4 ovarian): > 100 µM
- GI50 (SNB-75 CNS): > 100 µM
- TGI (SNB-75 CNS): > 100 µM
- GI50 (SK-MEL-28 melanoma): > 100 µM
- TGI (SK-MEL-28 melanoma): > 100 µM
- GI50 (ACHN renal): > 100 µM
- TGI (ACHN renal): > 100 µM
- GI50 (CCRF-CEM leukemia): > 100 µM
- TGI (CCRF-CEM leukemia): > 100 µM
- GI50 (SN12C renal): > 100 µM
- TGI (SN12C renal): > 100 µM
- GI50 (LOX IMVI melanoma): > 100 µM
- TGI (LOX IMVI melanoma): > 100 µM
- GI50 (RXF 393 renal): > 100 µM
- TGI (RXF 393 renal): > 100 µM
- GI50 (MALME-3M melanoma): 71.4 µM
- TGI (MALME-3M melanoma): > 100 µM
- GI50 (786-0 renal): > 100 µM
- TGI (786-0 renal): > 100 µM

Structure (SMILES): CCCC(C)(O)C1CC23C=CC1(OC)[C@H]1Oc4c(OC)ccc5c4[C@]12CCN(CCN)[C@H]3C5 (stereo not given in full)
- TGI (EKVX NSCLC): > 100 µM
- TGI (HL-60(TB) leukemia): 65 µM
- TGI (K-562 leukemia): 52.6 µM
- TGI (SW-620 colon): > 100 µM
- TGI (MDA-MB-435): 51 µM
- TGI (SF-295 CNS): > 100 µM
- TGI (NCI-H522 lung): > 100 µM
- TGI (OVCAR-5 ovarian): > 100 µM
- TGI (NCI/ADR-RES ovarian): > 100 µM
- TGI (KM12 colon): > 100 µM
- TGI (MOLT-4 leukemia): 87.3 µM
- TGI (SK-MEL-2 melanoma): 33.7 µM
- TGI (MDA-MB-231 breast): 94.8 µM
- TGI (A549 NSCLC): > 100 µM
- TGI (HT29 colon): 48.6 µM
- TGI (IGROV1 ovarian): > 100 µM
- TGI (HCC-2998 colon): 21.4 µM
- TGI (SNB-19 CNS): > 100 µM
- TGI (T-47D breast): 36.6 µM
- TGI (SF-268 CNS): > 100 µM
- TGI (HCT-15 colon): > 100 µM
- TGI (PC-3 prostate): > 100 µM
- TGI (M14 melanoma): 29.3 µM
- TGI (TK-10 renal): > 100 µM
- TGI (A498 renal): > 100 µM
- TGI (MDA-N): > 100 µM
- TGI (CAKI-1 renal): > 100 µM
- TGI (RPMI-8226 leukemia): 48.3 µM
- TGI (OVCAR-8 ovarian): > 100 µM
- TGI (DU-145 prostate): > 100 µM
- TGI (MCF7 breast): > 100 µM
- TGI (HOP-62 NSCLC): > 100 µM
- TGI (SR leukemia): 80.7 µM
- TGI (HCT-116 colon): > 100 µM
- TGI (UACC-62 melanoma): 51.4 µM
- TGI (HOP-92 NSCLC): > 100 µM
- TGI (NCI-H23 lung): > 100 µM
- TGI (BT-549 breast): > 100 µM
- TGI (UO-31 renal): > 100 µM
- TGI (OVCAR-4 ovarian): > 100 µM
- TGI (NCI-H460 lung): > 100 µM
- TGI (ACHN renal): > 100 µM
- TGI (HS 578T breast): > 100 µM
- TGI (CCRF-CEM leukemia): 58.6 µM
- TGI (SN12C renal): > 100 µM
- TGI (OVCAR-3 ovarian): > 100 µM
- TGI (LOX IMVI melanoma): 28.5 µM
- TGI (RXF 393 renal): 67.9 µM
- TGI (MALME-3M melanoma): 21.4 µM
- TGI (786-0 renal): > 100 µM
